Molecules are shown by their SMILES.

Experimental findings from patent publication US10398687B2, “Use of cyproheptadine to treat organophosphate exposure” (dated 2019) are described below.

The assay deals with organophosphate chemical warfare agents. The assay can be described thus: Survival with cyproheptadine added to lower doses of atropine.

Consider `CN1CCC(=C2c3ccccc3C=Cc3ccccc32)CC1`, for which the “survival compared with the standard atropine dose” value is listed as “greater survival”.
